Measured values taken from US20240058459A1 (Ashvattha Therapeutics, Inc., priority 2019, published 2024).

Assays:
Toxicokinetics in rats = format: in vivo, Sprague-Dawley rats; conditions: D-4517 12 mg/kg daily IP, sunitinib 30 mg/kg daily oral
[1] = system: corneal neovascularization; conditions: topical, rabbit model of corneal neovascularization; cited from earlier work

For CCN(CC)CCNC(=O)c1c(C)[nH]c(/C=C2\C(=O)Nc3ccc(F)cc32)c1C [free sunitinib, sunitinib, reference compound], the “time post-dosing up to which plasma concentration was measurable” value (Toxicokinetics in rats) is listed as ≥ 24 h and the “effectiveness relative to bevacizumab” value [1] is listed as “almost three times as effective as bevacizumab”.
